Here are results for two compounds from PubChem BioAssay AID2101 (National Center for Advancing Translational Sciences (NCATS), 2009).

Only a part is listed here, and it is no random draw. Results filed as inconclusive are left out. The source made the active and inactive calls. The call rests on the fitted dose curve; in most records, active means well fitted inhibition curve with a large enough effect; inconclusive means small, poorly fitted or top-dose-only effect, or effect the other way, or another doubt; inactive means no such curve, though single readings can be large or run the other way.

The assay has as its target Lysosomal acid glucosylceramidase (Homo sapiens) (UniProt P04062). In words: qHTS Assay for Inhibitors and Activators of N370S glucocerebrosidase as a Potential Chaperone Treatment of Gaucher Disease.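 Further: 0% = full enzyme activity and -100% = no enzyme basal.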 Particulars: N370S GC spleen homogenate, 4MU-glucoside fluorescence; at 59.4 µM (top of the series). The source says:
NIH Chemical Genomics Center [NCGC]
NIH Molecular Libraries Probe Production Centers Network [MLPCN]
Assay Submitter (PI): Wei Zheng
Glucocerebrosidase (GC) catalyzes the hydrolysis of beta-glucocerebroside to glucose and ceramide in lysosomes. Mutations in the glucocerebrosidase gene result in Gaucher disease, an autosomal recessive lysosomal storage disorder. Many of the mutations encountered in patients with Gaucher disease are missense alterations that may cause misfolding, decreased stability and/or mistrafficking of this lysosomal protein. […] These inhibitors include iminosugar analogs and three non-iminosugar inhibitors identified from a previous HTS of 62,000 compounds with the wild type recombinant enzyme. […]
This is a fluorogenic enzyme assay with 4-methylumbelliferyl-beta-D-glucopyranoside as the substrate and N370S glucocerebrosidase from human spleen homogenate as the enzyme preparation. Upon the hydrolysis of this fluorogenic substrate, the resulting product, […] which can be detected by a standard fluorescence plate reader. […] The AC50 values were determined from concentration-response data modeled with the standard Hill equation. […]
(6) Detect the assay plate in a ViewLux plate reader (PerkinElmer) with Ex=365 nm and Em=440nm. […]
On the technique in general: Quantitative high-throughput screening tests each substance at several concentrations.
Consider `O=[N+]([O-])c1cc([N+](=O)[O-])c(CCNc2ccccc2)c([N+](=O)[O-])c1`, for which the activity change, negative = inhibition was inactive: -12%.

For the compound `COc1ccc(OP(C)(=O)Nc2ccccn2)cc1` (configuration not stated), the activity change, negative = inhibition is inactive: -1.45%.
